Measured values taken from ChEMBL document CHEMBL5385856, “Novel 1,4,5,6-tetrahydrocyclopenta[d]imidazole-5-carboxamide-based JNK3 inhibitors: Design, synthesis, molecular docking, and therapeutic potential in neurodegenerative diseases” (Eur J Med Chem, 2023).

Assay: Selectivity ratio of IC50 for inhibition of JNK2 (unknown origin) to IC50 for inhibition of JNK3 (unknown origin)

NC(=O)C1Cc2nc(-c3ccc(Cl)c(Cl)c3)n(-c3ccnc(N[C@H]4CCCN(C(=O)C5CC5)C4)n3)c2C1 (stereo partly specified)
Ratio IC50: 78
